The subject of this assay is T. brucei BF427 cell line. The assay is described as follows: Alamar Blue assay, sensitivity of bloodstream form T. brucei to ANP prodrugs. The class given is cell-based, Trypanosoma brucei. As to conditions: average CC50 for A549 divided by average EC50 for T. brucei BF427.

Turning to `Nc1nc2c(ncn2CCN(CCN(CCP(=O)(O)O)CCP(=O)(O)O)CCP(=O)(O)O)c(=O)[nH]1` [compound 4], the “Estimated selectivity index (SI)” value is on record as “very favourable”.

(Values after article PMC5843355, “Evaluation of the Trypanosoma brucei 6-oxopurine salvage pathway as a potential target for drug discovery” (PLoS Neglected Tropical Diseases, 2018).)
